Assay results taken from US6538029B1, “Methods for treatment of renal cell carcinoma” (Cell Pathways, priority 2002, dated 2003).

Tested on: cGMP and cAMP PDE activity of 786-O fractions

Nc1nc2c(ncn2[C@@H]2O[C@@H]3COP(=O)(O)O[C@H]3[C@H]2O)c(=O)[nH]1 [cGMP, cyclic 3′,5′-guanosine monophosphate]
Inhibition of cAMP activity of the 786-O profile (5 μM): partially inhibited

COc1ccc(C2CNC(=O)C2)cc1OC1CCCC1 (stereo not drawn) [Rolipram]
Inhibition of the third peak at fraction 85 (PDE4 activity) (786-O profile): inhibited

O=C([O-])C1CCN(c2nc(NCc3ccc4c(c3)OCO4)c3cc(Cl)ccc3n2)CC1.[Na+] [Example E4021]
Inhibition of cGMP PDE activity of the 786-O profile (100 nM): not inhibited
